Measurements published in patent publication US20210220285A1, “ACID RESISTANT CAPSULES” (Capsugel Belgium NV, priority 2016, published 2021).

Assay: pKa of enteric polymer by titration

polyvinyl acetate phthalate
pKa of the acid groups: about 5.0
